The values below are quoted from earlier work in patent EP4631504A1, “COMPOSITION FOR PREVENTION OR TREATMENT OF FABRY'S DISEASE” (Korea Advanced Institute of Science and Technology, priority 2022, dated 2024).

Chains of the proteins cited; added tags and fusions are not shown.
UniProt O75116, whole entry, species assumed: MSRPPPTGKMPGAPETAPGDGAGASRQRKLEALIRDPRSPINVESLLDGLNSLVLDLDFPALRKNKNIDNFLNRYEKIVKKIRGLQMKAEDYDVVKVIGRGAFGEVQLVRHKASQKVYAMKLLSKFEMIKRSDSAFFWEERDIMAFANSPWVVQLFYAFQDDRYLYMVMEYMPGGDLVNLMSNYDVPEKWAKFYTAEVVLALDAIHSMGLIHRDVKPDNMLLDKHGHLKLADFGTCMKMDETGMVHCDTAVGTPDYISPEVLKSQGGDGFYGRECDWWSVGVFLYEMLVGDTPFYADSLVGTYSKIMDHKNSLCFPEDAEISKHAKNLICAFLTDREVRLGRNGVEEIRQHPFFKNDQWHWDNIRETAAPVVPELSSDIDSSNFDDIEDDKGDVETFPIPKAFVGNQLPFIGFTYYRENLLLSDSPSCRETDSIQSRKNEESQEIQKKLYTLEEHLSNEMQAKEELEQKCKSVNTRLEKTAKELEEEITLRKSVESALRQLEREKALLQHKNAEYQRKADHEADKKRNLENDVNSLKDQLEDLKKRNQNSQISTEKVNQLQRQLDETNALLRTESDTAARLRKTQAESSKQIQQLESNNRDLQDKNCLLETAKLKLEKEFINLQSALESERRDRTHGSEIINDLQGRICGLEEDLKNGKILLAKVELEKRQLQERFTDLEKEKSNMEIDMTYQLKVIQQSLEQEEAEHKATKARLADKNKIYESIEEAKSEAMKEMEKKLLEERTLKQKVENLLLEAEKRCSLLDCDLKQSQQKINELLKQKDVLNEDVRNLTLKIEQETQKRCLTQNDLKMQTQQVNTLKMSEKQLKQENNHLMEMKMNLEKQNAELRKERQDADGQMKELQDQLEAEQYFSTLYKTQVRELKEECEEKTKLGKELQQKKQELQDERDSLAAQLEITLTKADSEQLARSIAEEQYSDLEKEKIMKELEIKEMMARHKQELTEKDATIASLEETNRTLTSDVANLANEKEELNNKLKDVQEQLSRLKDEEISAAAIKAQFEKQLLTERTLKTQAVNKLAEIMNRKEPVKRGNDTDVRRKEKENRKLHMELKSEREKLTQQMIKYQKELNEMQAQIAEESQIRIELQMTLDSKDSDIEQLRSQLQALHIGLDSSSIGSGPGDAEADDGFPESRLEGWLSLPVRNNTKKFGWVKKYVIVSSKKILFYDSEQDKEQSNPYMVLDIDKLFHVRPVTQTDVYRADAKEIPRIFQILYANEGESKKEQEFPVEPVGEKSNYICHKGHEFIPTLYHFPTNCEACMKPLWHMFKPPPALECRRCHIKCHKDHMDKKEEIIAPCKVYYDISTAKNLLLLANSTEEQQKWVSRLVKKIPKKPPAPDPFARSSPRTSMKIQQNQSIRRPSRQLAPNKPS

The data set deals with Rock2 (Homo sapiens, UniProt O75116). The note with it: cited from earlier work.

A word on the IC50: it is the point on the concentration scale where inhibition reaches its midpoint. For the substance Netarsudil mesylate, the IC50 is 1 to 2 nM.
